Legend:
Murine sEH = Murine sEH (Mus musculus, UniProt P34914); assay: Fluorescent-based sEH inhibition assay; conditions: read-out: IC50 Murine sEH; pH 7
[1] = tested on: LPS-induced release of inflammatory cytokines in plasma; assay: Plasma cytokines in LPS-challenged murine model; conditions: LPS-challenged mice

Chains of the proteins cited; added tags and fusions are not shown. Lines headed by an entry give the natural chain unless they say otherwise; changes in a name come on top.
UniProt P34914: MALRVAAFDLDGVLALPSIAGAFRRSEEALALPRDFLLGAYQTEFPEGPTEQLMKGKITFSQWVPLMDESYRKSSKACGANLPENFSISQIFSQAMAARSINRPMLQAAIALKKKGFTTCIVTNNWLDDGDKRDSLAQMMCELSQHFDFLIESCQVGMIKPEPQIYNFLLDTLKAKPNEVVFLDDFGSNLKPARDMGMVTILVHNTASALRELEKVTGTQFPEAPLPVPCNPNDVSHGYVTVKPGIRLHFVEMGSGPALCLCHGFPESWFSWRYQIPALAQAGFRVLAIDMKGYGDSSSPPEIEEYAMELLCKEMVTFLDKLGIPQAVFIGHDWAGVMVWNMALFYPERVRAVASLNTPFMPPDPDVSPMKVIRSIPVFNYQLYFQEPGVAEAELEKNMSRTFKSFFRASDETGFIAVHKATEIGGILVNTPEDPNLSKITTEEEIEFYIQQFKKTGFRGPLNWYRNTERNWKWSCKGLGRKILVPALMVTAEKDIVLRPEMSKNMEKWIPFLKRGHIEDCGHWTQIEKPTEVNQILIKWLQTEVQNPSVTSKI

| IC50 (Murine sEH) [nM] | SMILES | reduction of cytokine or chemokine release one day after treatment [1] |
| --- | --- | --- |
| 9 | CC(=O)N1CCC(NC(=O)NC23CC4CC(CC(C4)C2)C3)CC1 [APAU, 1-(1-acetypiperidin-4-yl)-3-adamantanylurea] |  |
|  | O=C(NC12CC3CC(CC(C3)C1)C2)N[C@H]1CC[C@H](Oc2ccc(C(=O)O)cc2)CC1 [t-AUCB, trans-4-[4-(3-adamantan-1-yl-ureido)-cyclohexyloxy]-benzoic acid, reference compound] | Neither the administration of TPPU nor the t-AUCB treatment demonstrated a beneficial effect |

Reference: paper PMC3596469 (European journal of pharmaceutical sciences : official …, 2013)
